# How the values were obtained:
# [1] = system: HL-60; assay: Cell proliferation assay: GI50; settings: read-out: HL-60 GI50; 48 h
# [2] = system: HL-60; assay: Differentiation-apoptosis assay, CD11b / annexin-V / Sytox Green / myeloid markers flow cytometry; type: cell-based, human; settings: HL-60, daily 25% GI50, 48 h
smiles,measurement,setting,value
COc1cc2c(OC3CCN(C)CC3)cc(-c3ccc(C)o3)nc2cc1OCCCN1CCCC1,GI50,[1],> 10 µM
same,Annexin V (%) Replicate 1,[2],0.08%
same,Annexin V (%) Replicate 2,[2],0.23%
same,Annexin V (%) Replicate 3,[2],0.12%
same,CD11b (%) Replicate 1,[2],3.10%
same,CD11b (%) Replicate 2,[2],1.50%
same,CD11b (%) Replicate 3,[2],11.30%
same,Annexin V + (%),[2]; mean of three,0.15%
same,CD11b+ (%),[2]; mean of three,5.30%
